PubChem BioAssay (NCI)
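1) Cells in 96-well plates. 2) Compound, 48 h, 5 concentrations. 3) Linear interpolation between surrounding doses. 4) Unreached endpoint = highest concentration. GI50 = concentration required for 50% inhibition of growth. At the TGI there is no net growth.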

How the values were obtained:
Test in all cases: NCI tumour cell line growth inhibition, 48 h
NCI-H460 lung = test system: NCI-H460 lung
A498 renal = test system: A498 renal
OVCAR-3 ovarian = test system: OVCAR-3 ovarian
TK-10 renal = test system: TK-10 renal
OVCAR-5 ovarian = test system: OVCAR-5 ovarian
SK-MEL-2 melanoma = test system: SK-MEL-2 melanoma
SN12C renal = test system: SN12C renal
EKVX NSCLC = test system: EKVX NSCLC
UACC-257 melanoma = test system: UACC-257 melanoma
M14 melanoma = test system: M14 melanoma
SK-MEL-28 melanoma = test system: SK-MEL-28 melanoma
HCT-116 colon = test system: HCT-116 colon
COLO 205 colon = test system: COLO 205 colon
MDA-MB-231 breast = test system: MDA-MB-231 breast
NCI-H522 lung = test system: NCI-H522 lung
HS 578T breast = test system: HS 578T breast
ACHN renal = test system: ACHN renal
K-562 leukemia = test system: K-562 leukemia
SK-MEL-5 melanoma = test system: SK-MEL-5 melanoma
A549 NSCLC = test system: A549 NSCLC
RXF 393 renal = test system: RXF 393 renal
MALME-3M melanoma = test system: MALME-3M melanoma
MDA-N = test system: MDA-N
786-0 renal = test system: 786-0 renal
LOX IMVI melanoma = test system: LOX IMVI melanoma
UACC-62 melanoma = test system: UACC-62 melanoma
SF-295 CNS = test system: SF-295 CNS
HT29 colon = test system: HT29 colon
MCF7 breast = test system: MCF7 breast
UO-31 renal = test system: UO-31 renal
OVCAR-8 ovarian = test system: OVCAR-8 ovarian
SNB-75 CNS = test system: SNB-75 CNS
HOP-92 NSCLC = test system: HOP-92 NSCLC
HL-60(TB) leukemia = test system: HL-60(TB) leukemia
SF-268 CNS = test system: SF-268 CNS
SNB-19 CNS = test system: SNB-19 CNS
NCI/ADR-RES ovarian = test system: NCI/ADR-RES ovarian
HCC-2998 colon = test system: HCC-2998 colon
RPMI-8226 leukemia = test system: RPMI-8226 leukemia
MDA-MB-435 = test system: MDA-MB-435
MOLT-4 leukemia = test system: MOLT-4 leukemia
HOP-62 NSCLC = test system: HOP-62 NSCLC
T-47D breast = test system: T-47D breast
NCI-H23 lung = test system: NCI-H23 lung
NCI-H322M lung = test system: NCI-H322M lung
CCRF-CEM leukemia = test system: CCRF-CEM leukemia
DU-145 prostate = test system: DU-145 prostate
KM12 colon = test system: KM12 colon
SW-620 colon = test system: SW-620 colon
CAKI-1 renal = test system: CAKI-1 renal
U251 CNS = test system: U251 CNS
SK-OV-3 ovarian = test system: SK-OV-3 ovarian
HCT-15 colon = test system: HCT-15 colon
IGROV1 ovarian = test system: IGROV1 ovarian
BT-549 breast = test system: BT-549 breast
NCI-H226 lung = test system: NCI-H226 lung
OVCAR-4 ovarian = test system: OVCAR-4 ovarian
SR leukemia = test system: SR leukemia
PC-3 prostate = test system: PC-3 prostate

O=[N+]([O-])C(F)(COCC(O)CO)[N+](=O)[O-] (stereo not drawn)
GI50 (NCI-H460 lung): 16.2 µM | TGI (NCI-H460 lung): 31.7 µM | GI50 (A498 renal): 21 µM | TGI (A498 renal): 48.3 µM | GI50 (OVCAR-3 ovarian): 12.8 µM | TGI (OVCAR-3 ovarian): 30.8 µM | GI50 (TK-10 renal): 12.4 µM | TGI (TK-10 renal): 48.9 µM | GI50 (OVCAR-5 ovarian): 22.8 µM | TGI (OVCAR-5 ovarian): 44.9 µM | GI50 (SK-MEL-2 melanoma): 19.4 µM | TGI (SK-MEL-2 melanoma): 39.1 µM | GI50 (SN12C renal): 16.3 µM | TGI (SN12C renal): 32.1 µM | GI50 (EKVX NSCLC): 18.1 µM | TGI (EKVX NSCLC): 42.4 µM | GI50 (UACC-257 melanoma): 14.4 µM | TGI (UACC-257 melanoma): 29.1 µM | GI50 (M14 melanoma): 6.54 µM | TGI (M14 melanoma): 26.9 µM | GI50 (SK-MEL-28 melanoma): 19.7 µM | TGI (SK-MEL-28 melanoma): 55.6 µM | GI50 (HCT-116 colon): 7.33 µM | TGI (HCT-116 colon): 24.2 µM | GI50 (COLO 205 colon): 9.61 µM | TGI (COLO 205 colon): 27 µM | GI50 (MDA-MB-231 breast): 18.9 µM | TGI (MDA-MB-231 breast): 38.9 µM | GI50 (NCI-H522 lung): 3.56 µM | TGI (NCI-H522 lung): 21.5 µM | GI50 (HS 578T breast): 32.7 µM | TGI (HS 578T breast): 73.7 µM | GI50 (ACHN renal): 14 µM | TGI (ACHN renal): 38.7 µM | GI50 (K-562 leukemia): 1.97 µM | TGI (K-562 leukemia): 19.2 µM | GI50 (SK-MEL-5 melanoma): 11 µM | TGI (SK-MEL-5 melanoma): 26 µM | GI50 (A549 NSCLC): 19.3 µM | TGI (A549 NSCLC): 39.2 µM | GI50 (RXF 393 renal): 30.6 µM | TGI (RXF 393 renal): > 100 µM | GI50 (MALME-3M melanoma): 5.55 µM | TGI (MALME-3M melanoma): 19.8 µM | GI50 (MDA-N): 2.92 µM | TGI (MDA-N): 8.66 µM | GI50 (786-0 renal): 3.3 µM | TGI (786-0 renal): 10.5 µM | GI50 (LOX IMVI melanoma): 10.7 µM | TGI (LOX IMVI melanoma): 47.8 µM | GI50 (UACC-62 melanoma): 8.53 µM | TGI (UACC-62 melanoma): 23.8 µM | GI50 (SF-295 CNS): 20.1 µM | TGI (SF-295 CNS): 42.7 µM | GI50 (HT29 colon): 12.3 µM | TGI (HT29 colon): 47.4 µM | GI50 (MCF7 breast): 11 µM | TGI (MCF7 breast): 45.3 µM | GI50 (UO-31 renal): 17.6 µM | TGI (UO-31 renal): 33.7 µM | GI50 (OVCAR-8 ovarian): 23.8 µM | TGI (OVCAR-8 ovarian): 55.1 µM | GI50 (SNB-75 CNS): 22 µM | TGI (SNB-75 CNS): 52.1 µM | GI50 (HOP-92 NSCLC): 11.9 µM | TGI (HOP-92 NSCLC): 27.6 µM | GI50 (HL-60(TB) leukemia): 2.48 µM | TGI (HL-60(TB) leukemia): 7.83 µM | GI50 (SF-268 CNS): 25.2 µM | TGI (SF-268 CNS): 55.8 µM | GI50 (SNB-19 CNS): 15.5 µM | TGI (SNB-19 CNS): 29.6 µM | GI50 (NCI/ADR-RES ovarian): 21.2 µM | TGI (NCI/ADR-RES ovarian): 52.3 µM | GI50 (HCC-2998 colon): 15.3 µM | TGI (HCC-2998 colon): 39.5 µM | GI50 (RPMI-8226 leukemia): 2.69 µM | TGI (RPMI-8226 leukemia): 12.4 µM | GI50 (MDA-MB-435): 2.79 µM | TGI (MDA-MB-435): 11.4 µM | GI50 (MOLT-4 leukemia): 6.27 µM | TGI (MOLT-4 leukemia): 35.5 µM | GI50 (HOP-62 NSCLC): 21.6 µM | TGI (HOP-62 NSCLC): 43.9 µM | GI50 (T-47D breast): 10.3 µM | TGI (T-47D breast): 39.5 µM | GI50 (NCI-H23 lung): 23.5 µM | TGI (NCI-H23 lung): 67.2 µM | GI50 (NCI-H322M lung): 20.3 µM | TGI (NCI-H322M lung): 40 µM | GI50 (CCRF-CEM leukemia): 3.1 µM | TGI (CCRF-CEM leukemia): 20.1 µM | GI50 (DU-145 prostate): 16.6 µM | TGI (DU-145 prostate): 32 µM | GI50 (KM12 colon): 15.2 µM | TGI (KM12 colon): 36.1 µM | GI50 (SW-620 colon): 3.79 µM | TGI (SW-620 colon): 28.8 µM | GI50 (CAKI-1 renal): 6.51 µM | TGI (CAKI-1 renal): 13.8 µM | GI50 (U251 CNS): 20.3 µM | TGI (U251 CNS): 44.3 µM | GI50 (SK-OV-3 ovarian): 22.6 µM | TGI (SK-OV-3 ovarian): 49.3 µM | GI50 (HCT-15 colon): 5.63 µM | TGI (HCT-15 colon): 39.5 µM | GI50 (IGROV1 ovarian): 10.8 µM | TGI (IGROV1 ovarian): 25.6 µM | GI50 (BT-549 breast): 5.67 µM | TGI (BT-549 breast): 22.3 µM | GI50 (NCI-H226 lung): 25.9 µM | TGI (NCI-H226 lung): 58.2 µM | GI50 (OVCAR-4 ovarian): 21.8 µM | TGI (OVCAR-4 ovarian): 61.7 µM | GI50 (SR leukemia): 2.33 µM | TGI (SR leukemia): 8.99 µM | GI50 (PC-3 prostate): 16.8 µM | TGI (PC-3 prostate): 32.5 µM
